Data: US20260384410A1, “PESTICIDALLY ACTIVE CYCLIC AMINE COMPOUNDS” (published 2026)

Test system: Tetranychus urticae
Assay: Tetranychus urticae (Two-Spotted Spider Mite): Feeding/Contact Activity
Conditions: for mortality at an application rate of 12.5 ppm or even lower: bean leaf discs, mixed population (mobile stages), 8 days after infestation; for % mortality: comparison test as in Example B1
Description: Example B1: Tetranychus urticae (Two-Spotted Spider Mite): Feeding/Contact Activity
Bean leaf discs on agar in 24-well microtiter plates were sprayed with aqueous test solutions prepared from 10′000 ppm DMSO stock solutions. After drying the leaf discs were infested with a mite population of mixed ages. The samples were assessed for mortality on mixed population (mobile stages) 8 days after infestation.

CCN(C)S(=O)(=O)C1CCN(C(=O)c2cc(C#N)c(-c3ccc4c(c3)OC(F)(F)O4)nc2C)CC1
mortality at an application rate of 12.5 ppm or even lower: at least 80%

CCNS(=O)(=O)C1CCN(C(=O)c2cc(C#N)c(-c3ccc4c(c3)OC(F)(F)O4)nc2C(F)F)CC1
mortality at an application rate of 12.5 ppm or even lower: at least 80%

CCN(C)S(=O)(=O)C1CCN(C(=O)c2cc(C#N)c(-c3ccc(C(F)(F)F)cc3)nc2C(F)(F)F)CC1
% mortality (0.2 ppm): 0% | % mortality (0.8 ppm): 0% | % mortality (3 ppm): 80% | mortality at an application rate of 12.5 ppm or even lower: at least 80% | % mortality (12.5 ppm): 100% | % mortality (50 ppm): 100% | % mortality (200 ppm): 100%

CNS(=O)(=O)C1CCN(C(=O)c2cc(C#N)c(-c3ccc(C(F)(F)F)cc3)nc2C(F)(F)F)CC1
% mortality (0.2 ppm): 0% | % mortality (0.8 ppm): 0% | % mortality (3 ppm): 0% | % mortality (12.5 ppm): 80% | % mortality (50 ppm): 100% | % mortality (200 ppm): 100%

CCNS(=O)(=O)C1CCN(C(=O)c2cc(C#N)c(-c3ccc(C(F)(F)F)cc3)nc2C(F)(F)F)CC1
% mortality (0.2 ppm): 0% | % mortality (0.8 ppm): 80% | % mortality (3 ppm): 100% | mortality at an application rate of 12.5 ppm or even lower: at least 80% | % mortality (12.5 ppm): 100% | % mortality (50 ppm): 100% | % mortality (200 ppm): 100%

CCN(C)S(=O)(=O)C1CCN(C(=O)c2cc(C#N)c(-c3ccc4c(c3)OC(F)(F)O4)nc2C(F)F)CC1
mortality at an application rate of 12.5 ppm or even lower: at least 80%

CN(C)S(=O)(=O)C1CCN(C(=O)c2cc(C#N)c(-c3ccc(C(F)(F)F)cc3)nc2C(F)(F)F)CC1
% mortality (0.2 ppm): 0% | % mortality (0.8 ppm): 0% | % mortality (3 ppm): 0% | % mortality (12.5 ppm): 80% | % mortality (50 ppm): 100% | % mortality (200 ppm): 100%

CCNS(=O)(=O)C1CCN(C(=O)c2cc(C#N)c(-c3ccc4c(c3)OC(F)(F)O4)nc2COC)CC1
mortality at an application rate of 12.5 ppm or even lower: at least 80%

CCN(C)S(=O)(=O)C1CCN(C(=O)c2cc(C#N)c(-c3ccc4c(c3)OC(F)(F)O4)nc2COC)CC1
mortality at an application rate of 12.5 ppm or even lower: at least 80%
